Type in all cases: physicochemical
The nature of data set [1]: Acceleration test (40° C./75% relative humidity), synthetic tocopherol vs co-crystal, total tocopherol content. As to conditions: Month 0, initial set at 100%. The method, then: The content was determined by HPLC, the content was calculated by the external standard method, and the content is calculated based on the total tocopherol content. Both the initial tocopherol contents in the synthetic tocopherol itself and in the co-crystals were set at 100%.

The nature of data set [2]: Long-term test stability (25° C./60% relative humidity). Here is the method:
(§1) The content was determined by HPLC, and the content was calculated by the external standard method.

Data set [3] can be described thus: Strong light irradiation test (5500 Lux), content by HPLC and appearance. As to conditions: 25° C. The method, then: as §1
A short description of data set [4]: Accelerated test stability (40° C./75% relative humidity), D-α-tocopherol vs co-crystal. Here is the method: as §1
Data set [5] can be described thus: High temperature test (60° C.), content by HPLC and appearance. The method, then: as §1
Where [6] appears, read: Month 0, initial content set at 100%.

The substance “co-crystal of synthetic tocopherol and L-proline” displayed a content in data set [1] of 100.0%.

For “co-crystal of D-α-tocopherol and L-proline”, the content in data set [2] (setting [6]) is given as 100.0%; in data set [2] (Month 3), 99.6%; in data set [3] (near UV 90 μW/cm^2, Day 0, initial content set at 100%) it was 100%; in data set [3] (near UV 90 μW/cm^2, Day 5), 96.3%; in data set [3] (near UV 90 μW/cm^2, Day 10), 96.1%; in data set [3] (near UV 90 μW/cm^2, Day 20), 97.3%. Further, the content in data set [4] (setting [6]) was 100%; in data set [4] (Month 1), 100.6%; in data set [4] (Month 2), 100.1%; in data set [4] (Month 3) it was 99.7%; in data set [5] (Day 0, HPLC, initial content set at 100%), 100%; in data set [5] (Day 5, % of initial content), 98.5%. In addition, the content in data set [5] (Day 10, % of initial content) is reported as 96.9%; in data set [5] (Day 20, % of initial content), 96.9%; in data set [5] (Day 30, % of initial content), 95.4%.

These data come from US20200331855A1, “CO-CRYSTAL OF TOCOPHEROL AND PROLINE AND PREPARATION METHOD THEREOF” (priority 2017, published 2020).
